Measurements published in patent US20150140123A1, “Protein expression analyses for identifying genotoxic compounds” (Merck Patent GmbH, priority 2012, published 2015).

Tested on: HepG2 cells
Experimental: HepG2 cells (Order No. HB-8065, Lot. 58483209, ATCC, Manassas, USA) were cultured in DMEM/F12 with L-Glutamine and 15 mM Hepes supplemented with 10% (v/v) FBS, 1% (v/v) penicillin (10 kU/ml)/streptomycin (10 mg/ml) solution, 0.1% (v/v) gentamicin (50 mg/ml), and 1 mM sodium pyruvate at 37° C. and 5% CO2 in culture flasks. Depending on the experiment, an appropriate number of cells were seeded onto plates after detaching of the cells using trypsin and cells were cultured at 37° C. and 5% CO2 for 24 h prior to treatment. All experiments were performed three times with cells of passages 4-20.
Cells were seeded onto black Poly-D-Lysin coated 96-well-plates (BD Biocoat, Franklin Lakes, USA) (0.02×10^6 cells/well) and left 24 h for adherence and then treated with test compounds at a maximum concentration of 1 mM which is recommended by the ICH S2(R1) guideline (EMA, 2011). For each compound, nine concentrations were tested with 2-fold serial dilutions. DMSO 1% (v/v) served as vehicle control for the experiments. The treatment procedure was different for direct-genotoxic and pro-genotoxic compounds. The treatment for direct genotoxic compounds was ongoing and was repeated daily over 48 h. Pro-genotoxic compounds were incubated for 6 h together with metabolic activation system (to limit the cytotoxic effect of the S9-mixture). After this period, cells were washed with cell media followed by 18-repeated daily over 48 h. The metabolic activation system used consisted of the following components and concentrations: 8 mM MgCl2, 32.8 mM KCl, 12 mM NADPH, 124 mM phosphate buffer and 2500 pmol/ml cytochrome P450 (CYP) content in the pre-mixture corresponding to 2.4 mM MgCl2, 9.8 mM KCl, 3.6 mM NADPH, 37.2 mM phosphate buffer, and 750 pmol/ml CYP as final concentrations after dilution 1:3.33 with cell culture media.
After treatment, cells were rinsed with PBS (Gibco Invitrogen, Karlsruhe, Germany), and then stained with 10 μM CellTracker Green 5-Chloromethylfluorescein Diacetate (CMFDA) (Invitrogen, Karlsruhe, Germany) in cell culture media for 30 min. CMFDA is per se non-fluorescent and is hydrolyzed by esterase in viable cells to a fluorescent-dye. The reaction with thiol groups leads to a cell-impermeable fluorescent-dye-adduct. The esterase activity can be used as an indicator for viability of cells (Papadopoulos et al., 1994, J Immunol Methods 177, 101-11). Afterwards, cells were washed with PBS and fixed with 3.7% Formaldehyde (Sigma-Aldrich, Taufkirchen, Germany) in PBS for 20 min. After that, cells were washed with PBS and blocked and permeabilized with 2% donkey serum (Millipore, Schwalbach, Germany) and 0.25% Triton X-100 (Sigma-Aldrich, Taufkirchen, Germany) in PBS for 30 min. Primary antibodies were diluted in Blocking/Permeabilization solution to final concentrations of 4 μg/ml anti-p-Chk1 (Ser345) goat polyclonal antibody IgG (santa cruz, Santa Cruz, USA), 4 μg/ml anti-p-ATM (Ser1981) mouse monoclonal antibody IgG1K (Millipore, Schwalbach, Germany) and added to the cells. After incubation for 16-18 h, cells were washed with 0.05% Tween 20 (Calbiochem, Darmstadt, Germany) in PBS, and the secondary antibody/16 μM Hoechst staining solution Blocking/Permeabilization solution was added. Secondary antibodies were diluted 1:400 (Alexa Fluor 555 donkey anti-goat, Alexa Fluor 647 donkey anti-mouse, Invitrogen, Karlsruhe, Germany). After an incubation of 1 h, followed by two additional washing steps with 0.05% Tween 20, cells were washed with PBS and finally PBS was added and cells were measured.
Image acquisition was performed on the ArrayScan VTI HCS Reader (Cellomics, Pittsburgh, USA) using a 20× objective. To detect enough cells, 50 images starting at the middle of each well were gathered.
• Channel 1: selected cell count per valid field • Channel 2: CMFDA cytoplasm average intensity • Channel 3: p-Chk1 (Ser345) nucleus average intensity • Channel 4: p-ATM (Ser1981) nucleus average intensity

| Substance | CMFDA +S9 highest conc. <50% cytotox. over control [µM] | CMFDA −S9 highest conc. <50% cytotox. over control [µM] | SCC +S9 highest conc. <50% cytotox. over control [µM] | SCC −S9 highest conc. <50% cytotox. over control [µM] |
| --- | --- | --- | --- | --- |
| Trisodium EDTA trihydrate | 1000 | 1000 | 1000 | 500 |
| Tert-butyl alcohol | 1000 | 1000 | 1000 | 1000 |
